Results from PubChem BioAssay (EPA / NIEHS).
This is a selection; strong and weak results do not stand in their true shares. The source made the active and inactive calls. Rule for the calls: active = hit-call score of the fitted dose curve at least 0.9, where 1 is the maximum; inactive = score below 0.9.

What was measured:
[1] = read-out: Urokinase-type plasminogen activator receptor (uPAR), PLAUR (gene 5329); assay: BSK_4H_uPAR: BioMAP Diversity Plus: 4H Assay for Urokinase-type plasminogen activator receptor (uPAR) Biomarker Activity (AID 2283030); conditions: actives raise or lower the signal; primary human endothelial cells (HUVEC)
Summary of the method: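 Chemicals are dosed onto human vascular endothelial primary cells (umbilical vein). After 24 h, uPAR is read by ELISA. Gain or loss of signal is fitted relative to DMSO.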

[2] = read-out: Vascular endothelial growth factor receptor 2 (Homo sapiens) (UniProt P35968); assay: BSK_4H_VEGFRII: BioMAP Diversity Plus: 4H Assay for Vascular endothelial growth factor receptor 2 (VEGFR2) Biomarker Activity (AID 2283031); conditions: actives raise or lower the signal; primary human endothelial cells (HUVEC)
Summary of the method: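 VEGFRII levels on human vascular endothelial primary cells were determined by ELISA at 24 hours post-dosing, with gain- or loss-of-signal fitted against DMSO controls.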

[3] = read-out: Human Leukocyte Antigen - DR isotype (HLADR), HLA-DRA (gene 3122); assay: BSK_BE3C_HLADR: BioMAP Diversity Plus: BE3C Assay for Human Leukocyte Antigen - DR isotype (HLADR) Biomarker Activity (AID 2283032); conditions: actives raise or lower the signal; primary human bronchial epithelial cells
Summary of the method: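 Human primary bronchial epithelial cells in the BE3C system were exposed to chemicals for 24 h, after which HLA-DR levels were quantified by ELISA. Activity was fitted bidirectionally, gain or loss of signal, against DMSO as negative control and baseline.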

[4] = read-out: Vascular cell adhesion molecule 1 (VCAM1), VCAM1 (gene 7412); assay: BSK_4H_VCAM1: BioMAP Diversity Plus: 4H Assay for Vascular cell adhesion molecule 1 (VCAM1) Biomarker Activity (AID 2283033); conditions: actives raise or lower the signal; primary human endothelial cells (HUVEC);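 for outcome: cell-surface VCAM-1 protein measured by ELISA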
Summary of the method: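 Primary human umbilical vein endothelial cells were exposed to chemicals for 24 h, after which VCAM-1 was quantified by ELISA. Responses were fitted bidirectionally against DMSO as negative control and activity baseline.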

[5] = read-out: Interferon-gamma inducible Protein 10 (IP10), CXCL10 (gene 3627); assay: BSK_BE3C_IP10: BioMAP Diversity Plus: BE3C Assay for Interferon-gamma inducible Protein 10 (IP10) Biomarker Activity (AID 2283034); conditions: actives raise or lower the signal; primary human bronchial epithelial cells
Summary of the method: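 Human primary bronchial epithelial cells were exposed to chemicals for 24 hours, after which IP-10 levels were measured by ELISA. Data were fitted bidirectionally against DMSO, which served as the negative control and activity baseline.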

[6] = read-out: Monokine induced gamma interferon (MIG), CXCL9 (gene 4283); assay: BSK_BE3C_MIG: BioMAP Diversity Plus: BE3C Assay for Monokine induced gamma interferon (MIG) Biomarker Activity (AID 2283035); conditions: actives raise or lower the signal; primary human bronchial epithelial cells;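 note: MIG protein measured by ELISA in BE3C cultures after 24 h of dosing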
Summary of the method: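 Primary human bronchial epithelial cells treated for 24 h; MIG levels measured by ELISA, fitted bidirectionally versus DMSO. Parallel SRB total-protein staining assessed cytotoxicity.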

[7] = read-out: Transforming growth factor beta 1 (TGFb1), TGFB1 (gene 7040); assay: BSK_BE3C_TGFb1: BioMAP Diversity Plus: BE3C Assay for Transforming growth factor beta 1 (TGFb1) Biomarker Activity (AID 2283036); conditions: actives raise or lower the signal; primary human bronchial epithelial cells
Summary of the method: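 Human primary bronchial epithelial cells (BE3C system) were dosed with chemical and TGF-b1 levels measured by ELISA at 24 h. Activity was fitted bidirectionally relative to DMSO negative control as baseline.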

[8] = read-out: Plasminogen activator inhibitor-1 (PAI1), SERPINE1 (gene 5054); assay: BSK_BE3C_PAI1: BioMAP Diversity Plus: BE3C Assay for Plasminogen activator inhibitor-1 (PAI1) Biomarker Activity (AID 2283037); conditions: actives raise or lower the signal; primary human bronchial epithelial cells
Summary of the method: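 Human primary bronchial epithelial cells were exposed to chemical for 24 h, then PAI-1 was quantified by ELISA. Activity was fitted bidirectionally relative to the DMSO negative control baseline.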

[9] = read-out: urokinase plasminogen activator (uPA), PLAU (gene 5328); assay: BSK_BE3C_uPA: BioMAP Diversity Plus: BE3C Assay for urokinase plasminogen activator (uPA) Biomarker Activity (AID 2283038); conditions: actives raise or lower the signal; primary human bronchial epithelial cells;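 for outcome: uPA protein level quantified by ELISA in cell cultures; uPA read one day after compound addition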
Summary of the method: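 Measured by ELISA: uPA from human primary bronchial epithelial cells 24 h after chemical treatment. Values derive from bidirectional curve fitting with DMSO serving as negative control. Total protein by SRB staining in parallel wells flagged overt cytotoxicity.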

[10] = read-out: Urokinase-type plasminogen activator receptor (uPAR), PLAUR (gene 5329); assay: BSK_BE3C_uPAR: BioMAP Diversity Plus: BE3C Assay for Urokinase-type plasminogen activator receptor (uPAR) Biomarker Activity (AID 2283039); conditions: actives raise or lower the signal; primary human bronchial epithelial cells;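 note: cells exposed to compound for one day before measurement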
Summary of the method: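 Primary human bronchial epithelial cells were dosed with chemical and harvested 24 h later; uPAR was quantified by ELISA. Activity was fitted bidirectionally against DMSO as negative control and baseline.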

[11] = read-out: Interleukin-6 (IL6), IL6 (gene 3569); assay: BSK_CASM3C_IL6: BioMAP Diversity Plus: CASM3C Assay for Interleukin-6 (IL6) Biomarker Activity for (AID 2283040); conditions: actives raise or lower the signal; primary human coronary artery smooth muscle cells
[12] = read-out: Tissue plasminogen activator (tPA), PLAT (gene 5327); assay: BSK_BE3C_tPA: BioMAP Diversity Plus: BE3C Assay for Tissue plasminogen activator (tPA) Biomarker Activity (AID 2283041); conditions: actives raise or lower the signal; primary human bronchial epithelial cells;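 note: tPA level quantified by ELISA one day after compound addition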
Summary of the method: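 Human primary bronchial epithelial cells were dosed with chemical and tPA biomarker levels measured by ELISA 24 hours later. Activity was fitted bidirectionally against DMSO as negative control and baseline.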

[13] = read-out: Interleukin-8 (IL8), CXCL8 (gene 3576); assay: BSK_CASM3C_IL8: BioMAP Diversity Plus: CASM3C Assay for Interleukin-8 (IL8) Biomarker Activity (AID 2283042); conditions: actives raise or lower the signal; primary human coronary artery smooth muscle cells;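 note: IL-8 protein level quantified by ELISA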
[14] = read-out: Human Leukocyte Antigen - DR isotype (HLADR), HLA-DRA (gene 3122); assay: BSK_CASM3C_HLADR: BioMAP Diversity Plus: CASM3C Assay for Human Leukocyte Antigen - DR isotype (HLADR) Biomarker Activity (AID 2283043); conditions: actives raise or lower the signal; primary human coronary artery smooth muscle cells;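 note: cell-surface HLA-DR protein level quantified by ELISA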
[15] = read-out: Macrophage colony-stimulating factor (MCSF), CSF1 (gene 1435); assay: BSK_CASM3C_MCSF: BioMAP Diversity Plus: CASM3C Assay for Macrophage colony-stimulating factor (MCSF) Biomarker Activity (AID 2283044); conditions: actives raise or lower the signal; primary human coronary artery smooth muscle cells;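 note: M-CSF protein amount quantified by ELISA after 24 h exposure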
[16] = read-out: Low-density lipoprotein receptor (LDLR), LDLR (gene 3949); assay: BSK_CASM3C_LDLR: BioMAP Diversity Plus: CASM3C Assay for Low-density lipoprotein receptor (LDLR) Biomarker Activity (AID 2283045); conditions: actives raise or lower the signal; primary human coronary artery smooth muscle cells;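 note: LDLR protein level on the cell surface quantified by ELISA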
[17] = read-out: Monocyte Chemoattractant Protein-1 (MCP1), CCL2 (gene 6347); assay: BSK_CASM3C_MCP1: BioMAP Diversity Plus: CASM3C Assay for Monocyte Chemoattractant Protein-1 (MCP1) Biomarker Activity (AID 2283046); conditions: actives raise or lower the signal; primary human coronary artery smooth muscle cells;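 note: MCP-1 level quantified by ELISA 24 h after dosing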
[18] = BSK_CASM3C_Proliferation: Cell Proliferation Assessment in the BioMAP Diversity Plus: CASM3C Assay (AID 2283047); conditions: primary human coronary artery smooth muscle cells;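 note: sulforhodamine B total protein stain as relative cell number at 560 nm; sub-confluent cells exposed 48 h before staining; fitted both ways against DMSO so gain or loss of cell number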
[19] = read-out: Monokine induced gamma interferon (MIG), CXCL9 (gene 4283); assay: BSK_CASM3C_MIG: BioMAP Diversity Plus: CASM3C Assay for Monokine induced gamma interferon (MIG) Biomarker Activity (AID 2283048); conditions: actives raise or lower the signal; primary human coronary artery smooth muscle cells
[20] = read-out: serum amyloid A (SAA), SAA1 (gene 6288); assay: BSK_CASM3C_SAA: BioMAP Diversity Plus: CASM3C Assay for serum amyloid A (SAA) Biomarker Activity (AID 2283049); conditions: actives raise or lower the signal; primary human coronary artery smooth muscle cells;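 note: SAA protein level quantified by ELISA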

In the case of `CC(C)OP(C)(=O)OC(C)C`, the outcome [1] is reported as “inactive”, the outcome [2] is reported as “inactive” and the outcome [3] is reported as “inactive”. The outcome [4] was “inactive”, the outcome [5] was “inactive” and the outcome [6] was “inactive”. The outcome [7] was “inactive”, the outcome [8] was “inactive” and the outcome [9] was “inactive”. For the same molecule, the outcome [10] was “inactive”, the outcome [11] was “inactive” and the outcome [12] was “inactive”. For the same molecule, the outcome [13] was “inactive”, the AC50 [14] was active: 14 µM and the outcome [15] was “inactive”. The AC50 [16] was active: 20 µM, the outcome [17] was “inactive” and the AC50 [18] was active: 20 µM. The outcome [19] was “inactive” and the outcome [20] was “inactive”.
With `Cc1c([N+](=O)[O-])cccc1[N+](=O)[O-]` the outcome [1] was “inactive”, the outcome [2] was “inactive” and the outcome [3] was “inactive”. For the same molecule, the outcome [4] was “inactive”, the outcome [5] was “inactive” and the outcome [6] was “inactive”. The outcome [7] was “inactive”, the outcome [8] was “inactive” and the outcome [9] was “inactive”. The outcome [10] was “inactive”, the outcome [11] was “inactive” and the outcome [12] was “inactive”. The outcome [13] was “inactive”, the outcome [14] was “inactive” and the outcome [15] was “inactive”. For the same molecule, the outcome [16] was “inactive”, the outcome [17] was “inactive” and the outcome [18] was “inactive”. For the same molecule, the outcome [19] was “inactive” and the outcome [20] was “inactive”.
In the case of `Cc1ccc([N+](=O)[O-])cc1[N+](=O)[O-]`, the outcome [1] is reported as “inactive”, the outcome [2] is reported as “inactive” and the outcome [3] is reported as “inactive”. The outcome [4] was “inactive”, the outcome [5] was “inactive” and the outcome [6] was “inactive”. The outcome [7] was “inactive”, the outcome [8] was “inactive” and the outcome [9] was “inactive”. For the same molecule, the outcome [10] was “inactive”, the outcome [11] was “inactive” and the outcome [12] was “inactive”. For the same molecule, the outcome [13] was “inactive”, the outcome [14] was “inactive” and the outcome [15] was “inactive”. For the same molecule, the outcome [16] was “inactive”, the outcome [17] was “inactive” and the outcome [18] was “inactive”. The outcome [19] was “inactive” and the outcome [20] was “inactive”.
In the case of `Cc1ccc([N+](=O)[O-])c([N+](=O)[O-])c1`, the outcome [1] is reported as “inactive”, the outcome [2] is reported as “inactive” and the AC50 [3] is reported as active: 25.4 µM. For the same molecule, the AC50 [4] was active: 6.18 µM, the outcome [6] was “inactive” and the outcome [7] was “inactive”. For the same molecule, the outcome [8] was “inactive”, the AC50 [9] was active: 0.394 µM and the outcome [10] was “inactive”. The outcome [11] was “inactive”, the outcome [12] was “inactive” and the outcome [13] was “inactive”. For the same molecule, the outcome [14] was “inactive”, the outcome [15] was “inactive” and the outcome [16] was “inactive”. The outcome [17] was “inactive”, the outcome [18] was “inactive” and the outcome [19] was “inactive”. For the same molecule, the outcome [20] was “inactive”.
With `Cc1cccc([N+](=O)[O-])c1[N+](=O)[O-]` the outcome [1] was “inactive”, the outcome [2] was “inactive” and the outcome [3] was “inactive”. The AC50 [4] was active: 5.37 µM, the outcome [5] was “inactive” and the outcome [6] was “inactive”. The outcome [7] was “inactive”, the outcome [8] was “inactive” and the outcome [9] was “inactive”. The outcome [10] was “inactive”, the outcome [11] was “inactive” and the outcome [12] was “inactive”. For the same molecule, the outcome [13] was “inactive”, the AC50 [14] was active: 8.93 µM and the outcome [15] was “inactive”. The outcome [16] was “inactive”, the outcome [17] was “inactive” and the AC50 [18] was active: 14.3 µM. For the same molecule, the outcome [19] was “inactive” and the outcome [20] was “inactive”.
For `O=[N+]([O-])c1cccc([N+](=O)[O-])c1`, the outcome [1] was “inactive”, the outcome [2] was “inactive” and the outcome [3] was “inactive”. For the same molecule, the outcome [4] was “inactive”, the outcome [5] was “inactive” and the outcome [6] was “inactive”. For the same molecule, the outcome [7] was “inactive”, the outcome [8] was “inactive” and the outcome [9] was “inactive”. For the same molecule, the outcome [10] was “inactive”, the outcome [11] was “inactive” and the outcome [12] was “inactive”. For the same molecule, the outcome [13] was “inactive”, the outcome [14] was “inactive” and the outcome [15] was “inactive”. For the same molecule, the outcome [16] was “inactive”, the outcome [17] was “inactive” and the outcome [18] was “inactive”. The outcome [19] was “inactive” and the outcome [20] was “inactive”.
